The structures appear in SMILES notation. The entries are a selection whose mix differs from that of the whole data set. Inconclusive results are not listed. Activity calls are given as the source filed them. The call rests on the fitted dose curve; in most records, active means well fitted inhibition curve with a large enough effect; inconclusive means small, poorly fitted or top-dose-only effect; inactive means no such curve, though single readings can be large or run the other way.
On the % scale 0 is the no-effect control and ±100 the full control effect.

The nature of this assay: qHTS Assay for Inhibitors of the ERK Signaling Pathway using a Homogeneous Screening Assay. Further: nearly all actives have a fitted effect of over 55% in size. Particulars: HEK293-V1b, vasopressin-stimulated pERK AlphaScreen; at 57.5 µM (top of the series) unless noted.
For the compound `N1=C(c2nnc(-c3nn[nH]n3)nn2)NNN1`, the activity, negative = inhibition was inactive: -11% [at 11.5 µM].
Under `CP(=S)(Nn1cnnc1)Oc1ccccc1` (configuration not stated) stands inactive: -16.5%; under `CP(=O)(NC(=O)Nc1ccccc1)Oc1ccccc1` (configuration not stated), inactive: -10.2%; under `CCOP(C)(=S)SCC(=O)NC(C)C(=O)O` (configuration not stated), inactive: 1.62%.
Under `O=[N+]([O-])[O-].[NH4+]` stands inactive: 0.544%; under `COc1ccccc1OP(C)(=O)Nc1ccc(C)cc1` (configuration not stated), inactive: 1.17%; under `Cc1ccc(NP(C)(=O)Oc2ccccc2)c(C)c1` (configuration not stated), inactive: 6.79%.
Turning to `O=[N+]([O-])c1cccc([N+](=O)[O-])c1`, the activity, negative = inhibition is inactive: 5.94%.
For `Cc1ccc([N+](=O)[O-])cc1[N+](=O)[O-]`, the activity, negative = inhibition is inactive: -0.442%.
Under `Cc1ccc(C)c(NP(C)(=O)Oc2ccccc2)c1` (configuration not stated) stands inactive: 6.59%; under `Cc1nc2ccc3ccccc3c2s1.O=[N+]([O-])c1cc([N+](=O)[O-])c(O)c([N+](=O)[O-])c1`, inactive: -15.6%.
Under `CN(C)CCOC(=O)C(O)(c1ccccc1)C1CCCCC1` (configuration not stated) stands inactive: 3.11%; under `Cc1c([N+](=O)[O-])cccc1[N+](=O)[O-]`, inactive: 13.8%.
The figure for `Cc1ccc([N+](=O)[O-])c([N+](=O)[O-])c1` is inactive: 8.54%; for `CCN(CCO)CCO.Oc1c(Cl)c(Cl)c(Cl)c(Cl)c1Cl` it is inactive: 37.8% [at 11.5 µM]; for `CCOP(=O)(CC)OCC` it is inactive: 4.36%.
As to `CCOP(C)(=S)SCC(=O)NC(C)(CC)C(=O)O` (configuration not stated), the activity, negative = inhibition was inactive: -6.78%.
Under `CP(=O)(Nc1ccc2c(c1)OCCO2)Oc1ccccc1` (configuration not stated) stands inactive: -15.5%.
Under `NNC(NN)NN.n1nc(-c2nn[nH]n2)n[nH]1` stands inactive: -0.786% [at 11.5 µM].
The figure for `Cc1ccccc1NP(C)(=O)Nc1ccccc1C` is inactive: -13.2%; for `CCN(CCCl)Cc1ccccc1C` it is inactive: 20.9%; for `[NH4+].[O-][Cl+3]([O-])([O-])[O-]` it is inactive: -0.954%.
As for `CP(=O)(Nc1ccccc1F)Oc1ccccc1` (configuration not stated), the activity, negative = inhibition was inactive: 15.7%.
Under `CCC(C)(OO)OOC(C)(CC)OO` (configuration not stated) stands inactive: -3.82%.
`Cc1cccc([N+](=O)[O-])c1[N+](=O)[O-]`: the activity, negative = inhibition is inactive: -1.64%.
For the compound `COc1ccccc1OP(C)(=O)Nc1ccc(C)c(C)c1` (configuration not stated), the activity, negative = inhibition was inactive: -7.47%.
Under `Cc1nc2ccc3ccccc3c2o1.O=[N+]([O-])c1cc([N+](=O)[O-])c(O)c([N+](=O)[O-])c1` stands inactive: -3.47%.
As for `CP(=O)(Nc1ccccn1)Oc1ccccc1` (configuration not stated), the activity, negative = inhibition is inactive: 5.97%.
On to `CP(=O)(Oc1ccccc1)N1CCOC1=O` (configuration not stated), for which the activity, negative = inhibition is inactive: -15.3%.
Under `COc1ccccc1OP(C)(=O)Nc1c(C)n(C)n(-c2ccccc2)c1=O` (configuration not stated) stands inactive: 41.5%; under `OCCSCCO`, inactive: 22%; under `C/C1=C2N=C(/C=C3N=C(/C(C)=C4\[N-][C@@](C)([C@H]5N=C1[C@@](C)(CCC(=O)NC[C@H](C)OP(=O)([O-])O[C@@H]1[C@H](O)[C@H](n6cnc7cc(C)c(C)cc76)O[C@@H]1CO)[C@@H]5CC(N)=O)[C@](C)(CC(N)=O)[C@H]4CCC(N)=O)[C@@](C)(CC(N)=O)[C@@H]\3CCC(N)=O)C(C)(C)[C@@H]/2CCC(N)=O.[C-]#N.[Co+3]`, inactive: -8.87% [at 25.7 µM].
